Patent publication US4695576A, “L-N-n-propylpipecolic acid-2,6-xylidide” (priority 1985, dated 1987)

How the values were obtained:
[1] = Anesthetic activity/potency comparison; details: in vivo
[2] = Cardiotoxicity and general toxicity as stated in the text; details: in vivo
in vivo = details: mouse, iv

| SMILES | activity relative to R-Bupivacaine [1] | toxicity relative to Bupivacaine [2] | LD50 (in vivo) [mg/kg] |
| --- | --- | --- | --- |
| CCCN1CCCC[C@H]1C(=O)Nc1c(C)cccc1C [3 L, L-N-n-propylpipecolic acid-2,6-xylidide] | double the activity of R-Bupivacaine | much less toxic | – |
| CCCN1CCCCC1C(=O)Nc1c(C)cccc1C (stereo not drawn) [3 R, N--n-propylpipecolic acid 2,6-xylidide] | – | – | 13.6 |
